Results from paper PMC10703426, “New characterization of dihydroergotamine receptor pharmacology in the context of migraine: utilization of a β-arrestin recruitment assay” (Frontiers in Neurology, 2023).

Tested on: 168 GPCRs
Assay: gpcrMAX panel, antagonist mode, whole panel
Settings: 10 μM; >50% inhibition counted as significant

Q: For CNS(=O)(=O)Cc1ccc2[nH]cc(CCN(C)C)c2c1 [sumatriptan succinate], which “antagonist activity at any receptor tested” value is on record?
A: Its value is “no antagonist activity”.
